From PMC9391358, “Crystal structures reveal catalytic and regulatory mechanisms of the dual-specificity ubiquitin/FAT10 E1 enzyme Uba6” (Nature Communications, 2022)

Target: T1, Uba1 (Uba1_WT) (Homo sapiens, UniProt P22314)
T1 sequence (P22314 2-1058): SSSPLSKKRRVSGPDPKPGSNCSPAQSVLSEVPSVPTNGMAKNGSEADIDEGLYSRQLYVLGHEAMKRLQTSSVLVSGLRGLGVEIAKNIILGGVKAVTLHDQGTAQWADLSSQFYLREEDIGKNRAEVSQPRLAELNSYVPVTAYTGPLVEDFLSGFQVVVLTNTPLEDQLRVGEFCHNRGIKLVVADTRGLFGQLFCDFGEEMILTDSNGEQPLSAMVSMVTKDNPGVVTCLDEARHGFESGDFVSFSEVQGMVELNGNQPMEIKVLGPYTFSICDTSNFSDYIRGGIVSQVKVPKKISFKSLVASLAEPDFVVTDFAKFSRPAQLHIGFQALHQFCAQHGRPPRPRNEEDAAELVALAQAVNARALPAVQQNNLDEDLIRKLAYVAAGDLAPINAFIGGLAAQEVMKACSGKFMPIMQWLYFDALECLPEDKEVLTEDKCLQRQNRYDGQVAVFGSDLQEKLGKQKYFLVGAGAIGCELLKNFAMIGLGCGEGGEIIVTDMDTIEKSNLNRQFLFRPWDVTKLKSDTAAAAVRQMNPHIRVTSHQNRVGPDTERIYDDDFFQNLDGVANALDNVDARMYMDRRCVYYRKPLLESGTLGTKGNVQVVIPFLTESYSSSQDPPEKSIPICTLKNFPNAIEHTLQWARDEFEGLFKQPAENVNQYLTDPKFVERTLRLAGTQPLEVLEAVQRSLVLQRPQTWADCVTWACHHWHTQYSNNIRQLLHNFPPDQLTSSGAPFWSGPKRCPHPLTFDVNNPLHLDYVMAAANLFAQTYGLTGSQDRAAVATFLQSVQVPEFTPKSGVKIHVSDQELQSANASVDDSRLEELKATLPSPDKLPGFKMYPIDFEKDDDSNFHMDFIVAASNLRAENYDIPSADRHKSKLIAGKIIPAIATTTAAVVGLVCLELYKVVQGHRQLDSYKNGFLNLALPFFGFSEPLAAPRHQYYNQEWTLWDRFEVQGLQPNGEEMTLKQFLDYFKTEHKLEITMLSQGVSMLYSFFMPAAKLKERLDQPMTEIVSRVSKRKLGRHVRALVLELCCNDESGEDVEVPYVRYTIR
Settings: 25 °C, 20 mM HEPES pH 7.5, 150 mM NaCl, 0.5 mM TCEP; full-length or SCCH domain not told

How did the isothermal titration calorimetry turn out when `O=P(O)(O)O[C@H]1[C@H](OP(=O)(O)O)[C@@H](OP(=O)(O)O)[C@H](OP(=O)(O)O)[C@@H](OP(=O)(O)O)[C@H]1OP(=O)(O)O` [InsP6] was run?
Its isothermal titration calorimetry is “Uba1 fails to exhibit detectable binding under the same conditions”.
